Literature values, collected in US20080125663A1, “Pre-And Intra-Operative Imaging of Testicular Torsion” (University of Rochester Medical Center, priority 2006, published 2008).

Experiments:
Conditions in all cases: IV administration; cited from earlier work
mice = tested on: mice
rats = tested on: rats
rabbits = tested on: rabbits

In the case of `CC1(C)C(/C=C/C=C/C=C/C=C2\N(CCCCS(=O)(=O)O)c3ccc4ccccc4c3C2(C)C)=[N+](CCCCS(=O)(=O)[O-])c2ccc3ccccc3c21` [ICG, indocyanine green], the LD50 (mice) is listed as 60 and 80 mg/kg, the LD50 (rats) is listed as 50 and 70 mg/kg and the LD50 (rabbits) is listed as 50 to 80 mg/kg.
